Experimental data reported in ChEMBL document CHEMBL1133160, “Molecular modeling of the aldose reductase-inhibitor complex based on the X-ray crystal structure and studies with single-site-directed mutants” (J Med Chem, 2000).

Target: Aldo-keto reductase family 1 member B1 (Homo sapiens, UniProt P15121)
Assay: Inhibitory Activity against Human recombinant Aldose Reductase (wild type)

Work on `O=C(O)Cc1nn(Cc2nc3cc(C(F)(F)F)ccc3s2)c(=O)c2ccccc12` [ZOPOLRESTAT] yielded an IC50 of 36.4 nM.
